Test results taken from US20230226152A1, “INTERLEUKIN-2 POLYPEPTIDE CONJUGATES AND METHODS OF USE THEREOF” (Ambrx, Inc., priority 2020, published 2023).

Tested on: CTLL-2 cells
Assay: Clonal outgrowth and long-term propagation of CTLL-2 cells
Type: cell-based
Experimental: To further analyze the biological function of glycosylated IL-2 and non-glycosylated IL-2, an experiment analyzing clonal outgrowth rate and long-term propagation frequency of CTLL-2 cells was performed (FIG. 13). Single CTLL-2 cells were deposited into 96-well plates with a precoated feeder layer of γ-irradiated CF1-MEF (Mouse Embryonic Fibroblast) cells (Thermo Fisher, Waltham, Mass., CAT #A34180). During 19 days of growth with a single treatment of various concentrations, (0.005 nM, 0.05 nM, 0.5 nM and 5 nM), of wild type IL-2 produced from CHO cells or E. coli, the percentage of the grown colony numbers and percentage of survived colonies at the end of 19-day incubation were counted and analyzed. […] On average, the ability of glycosylated IL-2 to promote the clonal outgrowth is 2-fold higher than non-glycosylated IL-2 in the presence of 0.5 nM IL-2 concentration, which is the optimal cell culture condition for CTLL-2 cells growth. After long-term incubation (˜19 days), the colony survival rate from the glycosylated IL-2 treatment was 4-fold higher than the non-glycosylated IL-2 treatment.

glycosylated IL-2: wild type IL-2 produced from CHO cells, glycosylated
ability to promote clonal outgrowth, higher than non-glycosylated IL-2 (0.5 nM IL-2, single treatment): 2 fold | colony survival rate, higher than non-glycosylated IL-2 treatment (after long-term incubation (~19 days)): 4 fold
